# AlphaSeq binding of Ab-95 light chain variants to a spike HR2 peptide

Target: peptide PDVDLGDISGINAS, taken from heptad repeat 2 (HR2) of SARS-CoV-2 spike.

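The parent was found by panning a naive human phage display library on the peptide. Library AAYL52 holds single substitutions and randomly drawn double and triple substitutions in the CDRs. Affinity was read by AlphaSeq, a pooled yeast mating assay with surface-displayed partners. Pairs that bind mate more often; barcode pairs of the diploids are counted by sequencing. The ratio of observed to expected reads was calibrated, replicate by replicate, on BCL2-family standards whose Kd was known from biolayer interferometry. Each pool was mated in three replicate cultures.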

Ab-95 is the parent antibody, in scFv form: VH, then a (GGGGS)3 linker, then VL. The heavy chain is unchanged in all variants.
VH: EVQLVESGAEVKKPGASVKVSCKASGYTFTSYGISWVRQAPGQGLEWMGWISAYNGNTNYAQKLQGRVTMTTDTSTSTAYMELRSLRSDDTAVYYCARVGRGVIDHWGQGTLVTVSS
VL: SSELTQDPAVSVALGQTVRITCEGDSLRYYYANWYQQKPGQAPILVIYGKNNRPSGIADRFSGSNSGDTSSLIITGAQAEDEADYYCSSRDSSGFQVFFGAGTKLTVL

The parent's light chain CDRs are EGDSLRYYYAN, GKNNRPS, SSRDSSGFQVF; each variant's own CDRs replace them letter for letter. All variants listed here change Y31 of the VL, counted from its first residue. The read-out is the apparent dissociation constant on a log10 scale (nM): the lower, the stronger. The mean shown is taken over the replicates in which the pair was detected. "nd" marks a missing value. The strain was present, yet no cells mated with the target were sequenced in any replicate, which points to weak or no binding. Empty control strains, which show no peptide, gave a signal in 28% of pairings with library AAYL52; the median was 3.91 and 95% of these signals were weaker than 2.90. No background was subtracted. For each scFv, signals with the empty controls are counted beside the result.

With EGDSLRYYKAN / GKHNRPS / SSRDSSGMQVF the result was 3.98 (3 of 3 replicates; controls 7 of 9). Variant EGDSLRYYAAN / GKNNWPS / SNRDSSGFQVF showed 3.06 (3 of 3 replicates; controls 1 of 9). For EGDSLRYYWWN / GKNNGPS / SSRDSSGFQVF, the assay gave 4.25 (2 of 3 replicates; controls 1 of 9). For EGDSADYYWAN / GKNNRPS / SSRDSSGFQVF, the assay gave nd (0 of 3 replicates; controls 1 of 9). With EGDSLRYYRVN / GKNNRPS / SSRDMSGFQVF the result was 2.62 (3 of 3 replicates; controls 1 of 9). Variant EGDSLRYDNAN / AKNNRPS / SSRDSSGFQVF showed 1.70 (3 of 3 replicates; controls 0 of 9).

For EGDSLRYYCAN / GKNHRPD / SSRDSSGFQVF, the assay gave 2.47 (3 of 3 replicates; controls 3 of 9). For EGDSLRTYRAW / GKNNRPS / SSRDSSGFQVF, the assay gave 3.26 (3 of 3 replicates; controls 1 of 9). Variant EGDSLRYYFAN / GKNNRPS / SSRDSAGTQVF showed 2.66 (3 of 3 replicates; controls 1 of 9). With EGNSLRYYDAN / GKNNRPS / SSRDSSGFQIF the result was 0.71 (3 of 3 replicates; controls 1 of 9). Variant EGDSLRYYAAN / KKNNRPS / SSRDSSGFQRF showed nd (0 of 3 replicates; controls 2 of 9). For EGDSLRYYAAN / GKNNIPS / SSRDSSAFQVF, the assay gave 4.48 (3 of 3 replicates; controls 3 of 9).

With IGDSLRYYSAN / GKNNRPS / NSRDSSGFQVF the result was 1.62 (3 of 3 replicates; controls 4 of 9). With EGDSLRYYRTN / GKNWRPS / SSRDSSGFQVF the result was 3.29 (3 of 3 replicates; controls 1 of 9). Variant EGDSLRYYMAN / GVNNRQS / SSRDSSGFQVF gave 3.05 (3 of 3 replicates; controls 3 of 9). Variant EGDSLRYHLAN / GKNWRPS / SSRDSSGFQVF gave 1.84 (3 of 3 replicates; controls 4 of 9). Variant EGDSLRYYWAN / GKNNRPS / SSRDSSGFQVF showed 2.73 (3 of 3 replicates; controls 1 of 9). Variant EGDSLRYYRAN / GKNNRPS / SSRDSSGIQHF showed 4.14 (3 of 3 replicates; controls 0 of 9).

With EGDSMRYYPAN / NKNNRPS / SSRDSSGFQVF the result was 1.80 (3 of 3 replicates; controls 3 of 9). For EGDSLRYYSAN / GVNNRPS / SSRDSMGFQVF, the assay gave 3.08 (2 of 3 replicates; controls 2 of 9). With EGDSDRYYLAN / GKNNQPS / SSRDSSGFQVF the result was 4.19 (2 of 3 replicates; controls 2 of 9). Variant EGDSLRYYNAN / GKNNRPS / LSRDSSGFQVF showed 2.59 (3 of 3 replicates; controls 1 of 9). With EGDSLRYKDAN / GKNNRPS / SSRDSSGLQVF the result was nd (0 of 3 replicates; controls 0 of 9). Variant EGDSLRYYCAN / GKNNRPS / SSRDSSYRQVF gave 1.45 (3 of 3 replicates; controls 1 of 9).

For EGDSLRYCRAL / GKNNRPS / SSRDSSGFQVF, the assay gave 4.12 (1 of 3 replicates; controls 0 of 9). Variant EVDSLRYYSAN / GKNNRPS / ASRDSSGFQVF gave nd (0 of 3 replicates; controls 0 of 9). Variant TGDSLRYYKAN / GKNNRPS / SSRDSSGFQTF gave 2.09 (3 of 3 replicates; controls 2 of 9). With EGDSLRYTWAN / GKDNRPS / SSRDSSGFQVF the result was 1.56 (3 of 3 replicates; controls 4 of 9). With EGDSLRYKGAN / GKNNRPS / SSRDSEGFQVF the result was 2.47 (3 of 3 replicates; controls 1 of 9). With EGDSLRYYRAN / GKNNRPS / SSRCSEGFQVF the result was nd (0 of 3 replicates; controls 0 of 9).

Variant EGDSLIYYKAN / GKNNRPS / SSRDSSGFQVF gave 4.01 (2 of 3 replicates; controls 0 of 9). Variant EGDSLRYYSAS / GKNNRPV / SSRDSSGFQVF showed 2.53 (3 of 3 replicates; controls 1 of 9). With EGPSLRWYHAN / GKNNRPS / SSRDSSGFQVF the result was 1.77 (3 of 3 replicates; controls 2 of 9). Variant EGDVLRYYQAN / GKNNRHS / SSRDSSGFQVF showed 3.21 (3 of 3 replicates; controls 3 of 9). Variant EGDSLRYYHAN / GKHNRPS / SSRKSSGFQVF showed 3.37 (3 of 3 replicates; controls 0 of 9). For EGDSLRYYTAN / TKNNRPS / SSRDSSGFLVF, the assay gave 3.25 (1 of 3 replicates; controls 3 of 9).

For reference, 4 entries of the list once more:

{"CDR-L1": "EGDSLRYYCAN", "CDR-L2": "GKNNRPS", "CDR-L3": "SSRDSSYRQVF", "log10 Kd (nM), mean": "1.45", "seen in": "3 of 3", "control signals": "1 of 9"}
{"CDR-L1": "EGDSLRYYAAN", "CDR-L2": "GKNNWPS", "CDR-L3": "SNRDSSGFQVF", "log10 Kd (nM), mean": "3.06", "seen in": "3 of 3", "control signals": "1 of 9"}
{"CDR-L1": "TGDSLRYYKAN", "CDR-L2": "GKNNRPS", "CDR-L3": "SSRDSSGFQTF", "log10 Kd (nM), mean": "2.09", "seen in": "3 of 3", "control signals": "2 of 9"}
{"CDR-L1": "EGDSLRYHLAN", "CDR-L2": "GKNWRPS", "CDR-L3": "SSRDSSGFQVF", "log10 Kd (nM), mean": "1.84", "seen in": "3 of 3", "control signals": "4 of 9"}

Source: Engelhart et al. 2022 (doi:10.1038/s41597-022-01779-4), MIT Lincoln Laboratory and A-Alpha Bio; data file from the FLAb repository.